Results published in patent US8053603B2, “Tetralone-based monoamine reuptake inhibitors” (Sunovion Pharmaceuticals Inc., priority 2006, dated 2011).

Sequences of proteins named here, by UniProt entry; tags and fusion partners are left off.
UniProt P31645, whole entry: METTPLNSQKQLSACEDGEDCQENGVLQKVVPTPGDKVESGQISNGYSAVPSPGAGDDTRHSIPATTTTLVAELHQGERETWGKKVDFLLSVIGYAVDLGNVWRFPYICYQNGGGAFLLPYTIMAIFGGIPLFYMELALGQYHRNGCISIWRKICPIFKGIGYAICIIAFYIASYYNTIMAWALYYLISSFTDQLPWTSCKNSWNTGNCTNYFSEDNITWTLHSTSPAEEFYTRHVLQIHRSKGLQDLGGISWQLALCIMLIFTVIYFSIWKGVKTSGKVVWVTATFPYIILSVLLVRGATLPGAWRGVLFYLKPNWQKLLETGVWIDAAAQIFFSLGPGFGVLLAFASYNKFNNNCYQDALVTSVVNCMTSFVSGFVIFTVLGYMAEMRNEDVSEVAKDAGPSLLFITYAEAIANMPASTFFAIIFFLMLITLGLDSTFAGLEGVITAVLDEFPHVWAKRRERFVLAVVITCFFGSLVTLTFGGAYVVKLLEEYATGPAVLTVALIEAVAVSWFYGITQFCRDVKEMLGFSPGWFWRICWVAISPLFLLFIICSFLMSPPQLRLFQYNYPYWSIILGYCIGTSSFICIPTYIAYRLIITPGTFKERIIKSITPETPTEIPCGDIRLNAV
UniProt P23975, whole entry: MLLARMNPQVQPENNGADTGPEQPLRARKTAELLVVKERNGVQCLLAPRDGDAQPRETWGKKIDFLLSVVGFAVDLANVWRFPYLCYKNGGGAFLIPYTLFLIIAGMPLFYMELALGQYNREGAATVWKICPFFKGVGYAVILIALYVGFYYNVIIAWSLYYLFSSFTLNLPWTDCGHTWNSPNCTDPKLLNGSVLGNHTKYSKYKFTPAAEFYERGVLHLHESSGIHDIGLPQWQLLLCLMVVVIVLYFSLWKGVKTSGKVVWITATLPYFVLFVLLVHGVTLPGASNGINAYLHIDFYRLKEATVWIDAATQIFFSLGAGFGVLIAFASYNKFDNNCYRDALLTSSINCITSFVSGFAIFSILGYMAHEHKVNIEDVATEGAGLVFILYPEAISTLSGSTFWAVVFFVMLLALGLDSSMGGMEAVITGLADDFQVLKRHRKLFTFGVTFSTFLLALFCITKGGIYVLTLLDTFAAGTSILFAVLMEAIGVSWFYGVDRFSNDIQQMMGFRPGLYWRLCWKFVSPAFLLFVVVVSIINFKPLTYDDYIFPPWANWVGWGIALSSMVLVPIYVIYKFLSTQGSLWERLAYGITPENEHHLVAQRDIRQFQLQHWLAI
UniProt Q01959, whole entry: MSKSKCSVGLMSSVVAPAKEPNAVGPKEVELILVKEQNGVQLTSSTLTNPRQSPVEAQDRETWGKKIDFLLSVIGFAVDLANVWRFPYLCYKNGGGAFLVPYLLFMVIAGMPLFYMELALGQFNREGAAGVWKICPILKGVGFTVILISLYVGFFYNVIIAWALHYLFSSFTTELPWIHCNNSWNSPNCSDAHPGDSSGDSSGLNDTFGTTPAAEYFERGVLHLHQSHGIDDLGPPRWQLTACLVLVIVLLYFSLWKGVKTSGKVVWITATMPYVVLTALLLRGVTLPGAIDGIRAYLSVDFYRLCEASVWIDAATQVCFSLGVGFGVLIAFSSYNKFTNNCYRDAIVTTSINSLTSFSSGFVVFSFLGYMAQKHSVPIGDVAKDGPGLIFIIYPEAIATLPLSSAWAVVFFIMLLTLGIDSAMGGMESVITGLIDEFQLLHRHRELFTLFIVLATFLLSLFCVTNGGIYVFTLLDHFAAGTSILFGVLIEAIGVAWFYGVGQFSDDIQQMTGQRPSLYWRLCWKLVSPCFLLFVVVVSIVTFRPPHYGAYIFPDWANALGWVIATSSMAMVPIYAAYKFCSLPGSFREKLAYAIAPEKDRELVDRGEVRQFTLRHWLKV

These compounds were tested against T1, recombinant human serotonin transporter (Homo sapiens, UniProt P31645) (assay: Serotonin functional uptake assay for human reuptake transporter). Conditions: Human IC50 (nM) SERT.
T1 construct: expressed in transfected cells; host or cells: HEK-293
Format: cell-based

Going from `N[C@H]1Cc2ccccc2[C@H](c2ccc(Cl)c(Cl)c2)C1` (single isomer, unassigned) [Compound 6b, [4-(3,4-dichlorophenyl)-1,2,3,4-tetrahydro-naphthalen-2-yl]-amine] to `CN(C)[C@H]1Cc2ccccc2[C@H](c2ccc(Cl)c(Cl)c2)C1` (single isomer, unassigned) [Compound 8b, [4-(3,4-dichlorophenyl)-1,2,3,4-tetrahydro-naphthalen-2-yl]-dimethylamine], the IC50 falls from 1830 nM to 108 nM (17-fold). The second is the more potent here.

First: N[C@H]1Cc2ccccc2[C@H](c2ccc(Cl)c(Cl)c2)C1 (single isomer, unassigned) [Compound 6c, [4-(3,4-dichlorophenyl)-1,2,3,4-tetrahydro-naphthalen-2-yl]-amine]
Second: CN(C)[C@H]1Cc2ccccc2[C@H](c2ccc(Cl)c(Cl)c2)C1 (single isomer, unassigned) [Compound 8c, [4-(3,4-dichlorophenyl)-1,2,3,4-tetrahydro-naphthalen-2-yl]-dimethylamine]
The IC50 of the first is 28-fold higher: 84 nM for the first, 3 nM for the second.

Going from `N[C@H]1Cc2ccccc2[C@H](c2ccc(Cl)c(Cl)c2)C1` (single isomer, unassigned) [Compound 6d, [4-(3,4-dichlorophenyl)-1,2,3,4-tetrahydro-naphthalen-2-yl]-amine] to `CN(C)[C@H]1Cc2ccccc2[C@H](c2ccc(Cl)c(Cl)c2)C1` (single isomer, unassigned) [Compound 8d, [4-(3,4-dichlorophenyl)-1,2,3,4-tetrahydro-naphthalen-2-yl]-dimethylamine], the IC50 falls from 108 nM to 20 nM (5.4-fold). The second is the more potent here.

Same assay, conditions: [3H]serotonin uptake, HEK-293 cells expressing human serotonin transporter; read-out: Human IC50 (nM) SERT

Compared with `CN[C@H]1Cc2ccccc2[C@H](c2ccc(Cl)c(Cl)c2)C1` (single isomer, unassigned) [Compound 7b, 4-(3,4-dichlorophenyl)-N-methyl-1,2,3,4-tetrahydronaphthalen-2-amine], `CNC[C@H]1Cc2ccccc2[C@H](c2ccc(Cl)c(Cl)c2)C1` (single isomer, unassigned) [Compound 15b, [4-(3,4-dichlorophenyl)-1,2,3,4-tetrahydro-naphthalen-2-ylmethyl]-methylamine] is 2.3-fold lower in IC50: 125 nM for the first, 54 nM for the second. The second is the more potent here.

Compared with `CN[C@H]1Cc2ccccc2[C@H](c2ccc(Cl)c(Cl)c2)C1` (single isomer, unassigned) [Compound 7c, 4-(3,4-dichlorophenyl)-N-methyl-1,2,3,4-tetrahydronaphthalen-2-amine], `CNC[C@H]1Cc2ccccc2[C@H](c2ccc(Cl)c(Cl)c2)C1` (single isomer, unassigned) [Compound 15c, [4-(3,4-dichlorophenyl)-1,2,3,4-tetrahydro-naphthalen-2-ylmethyl]-methylamine] is 2.9-fold higher in IC50: 8 nM for the first, 23 nM for the second. The first is the more potent here.

Going from `CN[C@H]1Cc2ccccc2[C@H](c2ccc(Cl)c(Cl)c2)C1` (single isomer, unassigned) [Compound 7d, 4-(3,4-dichlorophenyl)-N-methyl-1,2,3,4-tetrahydronaphthalen-2-amine] to `CNC[C@H]1Cc2ccccc2[C@H](c2ccc(Cl)c(Cl)c2)C1` (single isomer, unassigned) [Compound 15d, [4-(3,4-dichlorophenyl)-1,2,3,4-tetrahydro-naphthalen-2-ylmethyl]-methylamine], the IC50 falls from 107 nM to 16 nM (6.7-fold).

Going from `NC[C@@H]1Cc2ccccc2[C@H](c2ccc(Cl)c(Cl)c2)C1` (single isomer, unassigned) [Compound 14b, (4-(3,4-dichlorophenyl)-1,2,3,4-tetrahydronaphthalen-2-yl)methanamine] to `NCCC1Cc2ccccc2C(c2ccc(Cl)c(Cl)c2)C1` (single isomer, unassigned) [Compound 25a, 2-(1,3-cis)-1-(3,4-dichlorophenyl)-(1,2,3,4-tetrahydronaphthalen-3-yl)ethanamine], the IC50 falls from 19 nM to 1 nM (19-fold).

Going from `NC[C@@H]1Cc2ccccc2[C@H](c2ccc(Cl)c(Cl)c2)C1` (single isomer, unassigned) [Compound 14c, (4-(3,4-dichlorophenyl)-1,2,3,4-tetrahydronaphthalen-2-yl)methanamine] to `CN(C)CC1Cc2ccccc2C(c2ccc(Cl)c(Cl)c2)C1` (single isomer, unassigned) [Compound 16a, [4-(3,4-dichlorophenyl)-1,2,3,4-tetrahydro-naphthalen-2-ylmethyl]-dimethylamine], the IC50 rises from 1 nM to 311 nM (310-fold). The first is the more potent here.

Going from `NC[C@@H]1Cc2ccccc2[C@H](c2ccc(Cl)c(Cl)c2)C1` (single isomer, unassigned) [Compound 14d, (4-(3,4-dichlorophenyl)-1,2,3,4-tetrahydronaphthalen-2-yl)methanamine] to `CN(C)CC1Cc2ccccc2C(c2ccc(Cl)c(Cl)c2)C1` (single isomer, unassigned) [Compound 16b, [4-(3,4-dichlorophenyl)-1,2,3,4-tetrahydro-naphthalen-2-ylmethyl]-dimethylamine], the IC50 rises from 61 nM to 970 nM (16-fold). The first is the more potent here.

Compound `CN[C@H]1CCc2ccccc2[C@H]1c1ccc(Cl)c(Cl)c1` (single isomer, unassigned) [Compound 36a, 1-(3,4-dichlorophenyl)-N-methyl-1,2,3,4-tetrahydronaphthalen-2-amine] has an IC50 of 1090 nM.
In the case of `CN[C@H]1CCc2ccccc2[C@H]1c1ccc(Cl)c(Cl)c1` (single isomer, unassigned) [Compound 36b, 1-(3,4-dichlorophenyl)-N-methyl-1,2,3,4-tetrahydronaphthalen-2-amine], the IC50 is reported as 2520 nM.
For `CN[C@H]1CCc2ccccc2[C@H]1c1ccc(Cl)c(Cl)c1` (single isomer, unassigned) [Compound 36c, 1-(3,4-dichlorophenyl)-N-methyl-1,2,3,4-tetrahydronaphthalen-2-amine], the IC50 was 26 nM.
`CN[C@H]1CCc2ccccc2[C@H]1c1ccc(Cl)c(Cl)c1` (stereo in doubt) [Compound 36d, 1-(3,4-dichlorophenyl)-N-methyl-1,2,3,4-tetrahydronaphthalen-2-amine] showed an IC50 of 868 nM.

The compounds below were run against T2, recombinant human norepinephrine transporter (Homo sapiens, UniProt P23975) (assay: Norepinephrine functional uptake assay for human reuptake transporter). Conditions: Human IC50 (nM) NET, [3H]norepinephrine uptake, HEK293 or MDCK cells expressing human norepinephrine transporter.
T2 construct: expressed in transfected cells; host or cells: HEK293 or MDCK
Format: cell-based

For `CN[C@H]1Cc2ccccc2[C@H](c2ccc(Cl)c(Cl)c2)C1` (single isomer, unassigned) [Compound 7b, 4-(3,4-dichlorophenyl)-N-methyl-1,2,3,4-tetrahydronaphthalen-2-amine], the IC50 was 117 nM.
Work on `CN[C@H]1Cc2ccccc2[C@H](c2ccc(Cl)c(Cl)c2)C1` (single isomer, unassigned) [Compound 7c, 4-(3,4-dichlorophenyl)-N-methyl-1,2,3,4-tetrahydronaphthalen-2-amine] yielded an IC50 of 45 nM.
Work on `CN[C@H]1Cc2ccccc2[C@H](c2ccc(Cl)c(Cl)c2)C1` (single isomer, unassigned) [Compound 7d, 4-(3,4-dichlorophenyl)-N-methyl-1,2,3,4-tetrahydronaphthalen-2-amine] yielded an IC50 of 73 nM.

Same assay, conditions: [3H]norepinephrine uptake, HEK293 or MDCK cells expressing human norepinephrine transporter; read-out: Human IC50 (nM) NET

`CN[C@H]1Cc2ccccc2[C@H](c2ccc(Cl)c(Cl)c2)C1` [Compound 7a, 4-(3,4-dichlorophenyl)-N-methyl-1,2,3,4-tetrahydronaphthalen-2-amine] and `NC[C@@H]1Cc2ccccc2[C@H](c2ccc(Cl)c(Cl)c2)C1` [Compound 14a, (4-(3,4-dichlorophenyl)-1,2,3,4-tetrahydronaphthalen-2-yl)methanamine] are within 1.5-fold of each other in IC50: 27 nM for the first, 28 nM for the second.

The compounds below were run against T3, recombinant human dopamine transporter (Homo sapiens, UniProt Q01959) (assay: Dopamine functional uptake assay for human reuptake transporter). Conditions: read-out: Human IC50 (nM) DAT.
T3 construct: expressed in transfected cells; host or cells: CHO-K1 or HEK293
Format: cell-based

With `NC[C@@H]1Cc2ccccc2[C@H](c2ccc(Cl)c(Cl)c2)C1` [Compound 14a, (4-(3,4-dichlorophenyl)-1,2,3,4-tetrahydronaphthalen-2-yl)methanamine] the IC50 was 11 nM.
